The target of the test is Protein kinase C beta type (Rattus norvegicus, UniProt P68403). Put plainly: PKC assay. To be noted: pH 7.5; 30 °C. As for the experimental part:
The activity of PKC, activated by phosphatidylerine and Ca2+, is measured by its ability to transfer phosphate from [gamma-32P]ATP to lysine-rich histone.

By UniProt entry, the sequences of proteins in these tests, tags left out.
UniProt P68403, whole entry: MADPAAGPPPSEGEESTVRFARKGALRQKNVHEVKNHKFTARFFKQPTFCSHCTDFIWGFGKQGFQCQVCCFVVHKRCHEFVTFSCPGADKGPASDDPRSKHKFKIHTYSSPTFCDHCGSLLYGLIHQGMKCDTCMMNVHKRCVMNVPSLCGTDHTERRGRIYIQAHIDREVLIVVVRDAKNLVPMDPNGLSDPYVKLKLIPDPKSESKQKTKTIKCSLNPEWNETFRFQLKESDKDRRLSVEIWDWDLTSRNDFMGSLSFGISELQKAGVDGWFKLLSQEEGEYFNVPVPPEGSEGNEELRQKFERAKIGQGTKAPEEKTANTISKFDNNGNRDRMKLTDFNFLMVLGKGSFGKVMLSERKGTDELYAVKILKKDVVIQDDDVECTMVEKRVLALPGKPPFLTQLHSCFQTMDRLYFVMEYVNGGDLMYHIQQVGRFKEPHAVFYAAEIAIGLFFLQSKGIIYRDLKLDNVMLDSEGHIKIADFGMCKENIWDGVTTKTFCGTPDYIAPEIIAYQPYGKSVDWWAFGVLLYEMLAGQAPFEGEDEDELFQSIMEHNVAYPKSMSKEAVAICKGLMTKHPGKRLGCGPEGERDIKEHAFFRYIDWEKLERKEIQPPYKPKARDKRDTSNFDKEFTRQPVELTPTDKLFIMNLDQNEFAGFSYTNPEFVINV

Structures are written as SMILES.

Regarding `COC(=O)[C@]1(O)C[C@@H]2O[C@@]1(C)n1c3ccccc3c3c4c(c5c6ccccc6n2c5c31)C(=O)NC4` [methyl (15R,16S,18S)-16-hydroxy-15-methyl-3-oxo-28-oxa-4,14,19-triazaoctacyclo[12.11.2.1^{15,18}.0^{2,6}.0^{7,27}.0^{8,13}.0^{19,26}.0^{20,25}]octacosa-1(26),2(6),7(27),8(13),9,11,20(25),21,23-nonaene-16-carboxylate], the IC50 amounted to 0.47 µM.

Values taken from BindingDB's records for doi:10.1021/jm00079a024 (Roche Products, 1992).
